This note sets out measurements from ChEMBL document CHEMBL1833850, “Thailandepsins: bacterial products with potent histone deacetylase inhibitory activities and broad-spectrum antiproliferative activities” (J Nat Prod, 2011).

Chains of the proteins cited; added tags and fusions are not shown. Lines headed by an entry give the natural chain unless they say otherwise; changes in a name come on top.
UniProt O15379: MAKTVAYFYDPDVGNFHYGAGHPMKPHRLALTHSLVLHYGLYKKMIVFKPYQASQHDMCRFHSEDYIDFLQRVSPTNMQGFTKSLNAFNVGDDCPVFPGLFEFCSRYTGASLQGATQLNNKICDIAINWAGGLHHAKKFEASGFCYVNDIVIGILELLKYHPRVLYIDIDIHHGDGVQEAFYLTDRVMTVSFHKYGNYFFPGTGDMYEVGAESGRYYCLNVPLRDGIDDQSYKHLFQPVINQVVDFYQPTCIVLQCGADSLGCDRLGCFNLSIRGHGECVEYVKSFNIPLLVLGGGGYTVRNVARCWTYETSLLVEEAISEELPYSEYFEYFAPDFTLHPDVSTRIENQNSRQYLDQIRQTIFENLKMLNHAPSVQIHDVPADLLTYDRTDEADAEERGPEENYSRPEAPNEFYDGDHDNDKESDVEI

Molecules are shown by their SMILES.

This assay deals with Histone deacetylase 3/Nuclear receptor corepressor 2 (HDAC3/NCoR2) (Homo sapiens, UniProt O15379). The format is protein-complex assay.

In turn, `CC=C1NC(=O)[C@@H](CS)NC(=O)[C@@H](C(C)C)NC(=O)C[C@@H](/C=C/CCS)OC(=O)[C@H](C(C)C)NC1=O` [FR-135313] displayed an IC50 of 5.3 nM.
